The record followed here is paper PMC10287724, “Structural basis of the interaction between BCL9-Pygo and LDB-SSBP complexes in assembling the Wnt enhanceosome” (Nature Communications, 2023).

Positions count from the first letter of the chain named. Names and notes keep the numbering of the source.

Assay [1] has as its target GST-hPygo2(58-84) (human) (UniProt Q9BRQ0). The assay is described as follows: BLI; GST-Pygo2(58-84) wt or mutant loaded on GST biosensors, quenched with free GST; wt or mutant MBP-LDB1-SSBP2 in solution (0.03-30 uM); Octet RED96, 30 °C; KD from steady-state analysis. Background: BLI is a label-free optical method that tracks binding on a fibre tip over time.
In assay [2] the target is GST-hPygo2(58-84) D80A (human) (UniProt Q9BRQ0). Described as above.
For assay [3], the target named is GST-hPygo2(58-84) E79A (human) (UniProt Q9BRQ0). The description is as above.
In assay [4] the target is GST-hPygo2(58-84) N76A (human) (UniProt Q9BRQ0). Described as above.
Assay [5] concerns the target GST-hPygo2(58-84) PPP63AAA (human) (UniProt Q9BRQ0). Described as above.
For assay [6], the target named is wt MBP-LDB1(56–285)-SSBP2(1–94) complex (human, UniProt Q86U70 56-285; P81877 1-94). The assay is described as follows: BLI; Octet RED96; GST-Pygo2 (wt or mutant) on GST biosensors quenched with free GST, wt or mutant MBP-LDB1-SSBP2 in solution at 0.03-30 μM; free GST sensors as control; steady-state analysis. As to conditions: both partners purified.
The target of assay [7] is T1, wt MBP-LDB1(56–285)-SSBP2(1–94) complex (human), Q86U70.
T1 chain 1: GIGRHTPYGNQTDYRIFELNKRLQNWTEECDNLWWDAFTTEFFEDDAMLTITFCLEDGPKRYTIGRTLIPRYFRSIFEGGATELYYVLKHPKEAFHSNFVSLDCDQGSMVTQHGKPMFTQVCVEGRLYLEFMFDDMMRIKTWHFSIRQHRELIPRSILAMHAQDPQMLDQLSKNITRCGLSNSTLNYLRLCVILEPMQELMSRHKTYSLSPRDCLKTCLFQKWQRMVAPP
T1 chain 2: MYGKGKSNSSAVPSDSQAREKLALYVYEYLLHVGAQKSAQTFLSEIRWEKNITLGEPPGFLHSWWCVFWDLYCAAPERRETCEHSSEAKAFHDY
The assay is described as follows: BLI. The following applies: modification not given.

The target of assay [8] is T2, wt MBP-LDB1(56–285)-SSBP2(1–94) complex (human, UniProt Q86U70 56-285; P81877 1-94).
T2 chain 1: T1 chain 1
T2 chain 2: T1 chain 2
The assay is described as follows: BLI.

Assay [9] addresses T2, wt MBP-LDB1(56–285)-SSBP2(1–94) complex. Briefly: BLI.
Assay [10] deals with T3, MBP-LDB1(56–285)-SSBP2(1–94) complex, LDB1 L245A (human, UniProt Q86U70 56-285; P81877 1-94, L245A).
T3 sequence 1: T1 chain 1 with L190A
T3 sequence 2: T1 chain 2
The assay is described as follows: BLI.

Assay [11] addresses T4, MBP-LDB1(56–285)-SSBP2(1–94) complex, LDB1 I248A (human, UniProt Q86U70 56-285; P81877 1-94, I248A).
T4 sequence 1: T1 chain 1 with I193A
T4 sequence 2: T1 chain 2
Briefly: BLI.

The target in assay [12] is T5, MBP-LDB1(56–285)-SSBP2(1–94) complex, LDB1 R244A (human, UniProt Q86U70 56-285; P81877 1-94, R244A).
T5 sequence 1: T1 chain 1 with R189A
T5 sequence 2: T1 chain 2
The assay is described as follows: BLI.

Assay [13] concerns the target MBP-LDB1(56–285)-SSBP2(1–94) complex, LDB1 N237A (human, UniProt Q86U70 56-285; P81877 1-94, N237A). Briefly: pull-down; MBP pull-down: 5 μM wt or mutant MBP-LDB1-SSBP2 on dextrin sepharose, 20 μM GST-Pygo; 50 mM Tris-HCl pH 8.0, 100 mM NaCl, 10 mM DTT; room temperature 2 h; Coomassie. As to conditions: both partners purified.
For assay [14], the target named is MBP-LDB1(56–285)-SSBP2(1–94) complex, LDB1 N241A (human, UniProt Q86U70 56-285; P81877 1-94, N241A). The assay is described as above. As to conditions: both partners purified.
Assay [15] deals with MBP-LDB1(56–285)-SSBP2(1–94) complex, LDB1 L245A (human, UniProt Q86U70 56-285; P81877 1-94, L245A). The assay is described as above. The following applies: both partners purified.
The target in assay [16] is MBP-LDB1(56–285)-SSBP2(1–94) complex, LDB1 I248A (human, UniProt Q86U70 56-285; P81877 1-94, I248A). The description is as above. The following applies: both partners purified.

A word on the Kd: it is the concentration at which binding is half-saturated. High values mean weaker binding, low ones tighter binding. Consider “MBP-LDB1(56-285) L245A-SSBP2(1-94) complex (from UniProt Q86U70 56-285; P81877 1-94)”, for which, in assay [1], the Kd is 3.2 µM.
For the molecule “MBP-LDB1(56-285)-SSBP2(1-94) complex (from UniProt Q86U70 56-285; P81877 1-94)”, the Kd in [2] worked out at 2.1 µM; in assay [3] it was 0.57 µM; in assay [4], 10 µM; in [5] it was 25 µM.
The molecule “MBP-LDB1(56-285) R244A-SSBP2(1-94) complex (from UniProt Q86U70 56-285; P81877 1-94)” came in with a Kd in assay [1] of 8.2 µM.
In the case of “MBP-LDB1(56-285) I248A-SSBP2(1-94) complex (from UniProt Q86U70 56-285; P81877 1-94)”, the Kd in assay [1] was 3.2 µM.

B1: GST-Pygo2(66–81) (domain or fragment, human, UniProt Q9BRQ0 66-81, looked up)
chain: TPMVDHLVASNPFEDD
notes: Pygopus 2 (Pygo2), human, residues 66-81; also called shorter Pygo2 fragment lacking PPP; source: E. coli BL21 (DE3), purified (glutathione sepharose, Superdex 200 SEC); not shown: GST, N-terminal, kept
As for B1, the Kd in [6] was roughly 11 µM.

B2: Pygo2(35-84) (peptide)
chain: GLQMKSPEKKRRKSNTQGPAYSHLTEFAPPPTPMVDHLVASNPFEDDFGA
B2: the Kd in assay [7] turned out to be 0.45 µM.

B3: GST-Pygo2 D80A (domain or fragment)
chain: LTEFAPPPTPMVDHLVASNPFEADFGA
In turn, B3 gave a Kd in assay [8] of 2.1 µM.

B4: GST-Pygo2 E79A (domain or fragment)
chain: LTEFAPPPTPMVDHLVASNPFADDFGA
B4 yielded a Kd in assay [8] of 0.57 µM.

B5: GST-Pygo2 PPP > AAA (domain or fragment)
chain: LTEFAAAATPMVDHLVASNPFEDDFGA
Regarding B5, the Kd in [8] is 25 µM.

B6: GST-Pygo2(58–84) (domain or fragment, human, UniProt Q9BRQ0 58-84, looked up)
chain: LTEFAPPPTPMVDHLVASNPFEDDFGA
notes: Pygopus 2 (Pygo2), human, residues 58-84 (PPP cluster 63-65 and NPF motif 76-78); also called GST-tagged wt Pygo2; wt GST-Pygo fragment; source: E. coli BL21 (DE3), purified (glutathione sepharose, Superdex 200 SEC); not shown: GST, N-terminal, kept
With B6, the Kd in [9] is 0.69 µM; in [10], 3.2 µM; in assay [11], 3.2 µM; in [12], 8.2 µM; in assay [6] it was roughly 0.45 µM. In addition, the binding result in assay [13], in assay [14], in assay [15] and in assay [16] was “binds” each time.

B7: GST-Pygo2 N76A (domain or fragment)
chain: LTEFAPPPTPMVDHLVASAPFEDDFGA
B7 returned a Kd in [8] of 10 µM.
